Assay results published in article PMC5454392, “Selective BET bromodomain inhibition as an antifungal therapeutic strategy” (Nature Communications, 2017).

Target: T1, CaBdf1 BD1 (Candida albicans, UniProt Q5A4W8)
T1 construct: made in house; host or cells: E. coli BL21(DE3)
T1 sequence (Q5A4W8 whole entry, looked up): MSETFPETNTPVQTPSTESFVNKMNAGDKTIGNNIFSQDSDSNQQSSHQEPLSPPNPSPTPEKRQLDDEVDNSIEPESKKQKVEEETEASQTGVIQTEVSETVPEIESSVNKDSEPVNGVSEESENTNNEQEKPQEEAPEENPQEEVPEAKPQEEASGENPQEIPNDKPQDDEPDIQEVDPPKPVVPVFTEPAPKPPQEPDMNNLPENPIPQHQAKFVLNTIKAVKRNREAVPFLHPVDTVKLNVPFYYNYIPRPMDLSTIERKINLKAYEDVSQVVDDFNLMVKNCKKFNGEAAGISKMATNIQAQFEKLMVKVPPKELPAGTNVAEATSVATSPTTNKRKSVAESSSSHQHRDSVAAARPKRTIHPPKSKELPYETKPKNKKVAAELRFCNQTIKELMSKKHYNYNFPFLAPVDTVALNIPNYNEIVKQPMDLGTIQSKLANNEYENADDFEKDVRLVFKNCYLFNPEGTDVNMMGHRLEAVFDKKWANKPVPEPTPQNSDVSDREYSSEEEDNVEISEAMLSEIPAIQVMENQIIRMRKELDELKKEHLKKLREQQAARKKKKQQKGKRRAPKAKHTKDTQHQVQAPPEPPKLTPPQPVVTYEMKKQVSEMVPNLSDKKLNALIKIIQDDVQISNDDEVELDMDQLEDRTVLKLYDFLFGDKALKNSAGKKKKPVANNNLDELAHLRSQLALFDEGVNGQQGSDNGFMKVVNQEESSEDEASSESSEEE
Assay type: binding
Settings: normalized array signal; wild-type BD1
Experimental: In short, arrays were blocked and incubated with 1 μM of purified CaBdf1 BD1 or BD2. Arrays were incubated with recombinant BDs for 2 h at 4 °C in binding buffer (Tris-HCl 50 mM pH 7.4, NP-40 0.1%, NaCl 150 mM, glycerol 10%). […] Assays were performed in duplicate.
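Also: normalized to spotted c-myc peptide positive control signal.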

Sequence	CaBdf1 BD1 Normalized (0 to 100%) WT [%]
A Rme2a T Kac Q T A Rme2a K S T G G K A P R K Q	0.399
A R T K Q T A R K S pT G G Kac A P R K Q	2
